How the values were obtained:
PKC = biological target: T1, PKC (Rattus norvegicus, UniProt P05696); experiment: Protein kinase C activity assay (histone phosphorylation, partially purified rat brain PKC); type: biochemical; conditions: read-out: maximal inhibition of PKC activity, PMA stimulated
T1 construct: Partially purified PKCα from rat brain; purchased Promega (Madison, Wis.); host or cells: rat brain (tissue enzyme, partially purified)
Experimental: (-)-R-ibuprofen and (+)-S-ibuprofen (optical purity >99%) were obtained from Sepracor Inc. (Marlborough, Mass.). The following were obtained from the Sigma Chemical Co. (St. […] Anti-PKCα antibody (affinity purified) and its C-terminal region peptide was obtained from Life Technologies (Gaithersburg, Md.). […] All other chemicals were of the highest available purity and were obtained from standard commercial sources. The assay for PKC activity was carried out essentially as described by Boyle et al.(1991) by quantifying the phosphorylation of histone in the presence of phoshatidylserine and PMA, with or without ibuprofen. […] Following 2 min initial incubation at 30° C., kinase reactions were initiated by the addition of ^32 P-γ-ATP and enzyme and continued at 30° C. for 2 min. Control incubations contained all assay components except enzyme and ibuprofen. […] All samples were carried out in duplicate.

APPs (105 kDa) = APPs (105 kDa) in human blood; type: in vivo
APP = conditions: 10 mg/kg P.O. bid, 7 days; n = 4 mean ± S.D.
[1] = oral; cited from earlier work
PKCα = PKCα translocation in NIH 3T3 cells (subcellular fractionation, Western blot); type: cell-based; conditions: 10 μg/ml; 30 min, 4 hours and 2 weeks
[2] = system: APPs secretion by NIH 3T3 cell lines; conditions: 50 μM, 20 h culture, n = 2, mean ± S.D.
APPs [3] = conditions: for APPs secretion in rat CSF (in words) / Density of APP Bands, CSF: 10 mg/kg P.O. bid, 7 days; for Density of APP Bands, CSF: n = 4 mean ± S.D.
APPs [4] = conditions: 10 mg/kg P.O. bid, 7 days; for Density of APP Bands, Cytosol: n = 4 mean ± S.D.
PKC βII = conditions: for rat brain PKC βII content (in words): 7 days of treatment; for Density of PKC βII Bands: membrane fraction, 10 mg/kg bid 7 days, n = 4 mean ± S.D.
PKC α [5] = conditions: for rat brain PKC α content (in words): 7 days of treatment; for Density of PKC α Bands: membrane fraction, 10 mg/kg bid 7 days, n = 4 mean ± S.D.
PKC θ = conditions: cytosolic or membranous fractions
PKC ε = conditions: cytosolic or membranous fractions
PKC γ = conditions: cytosolic or membranous fractions
PKC .xi. = conditions: cytosolic or membranous fractions
PKC α [6] = conditions: inventors' previous study
neutrophil = conditions: induced by PMA in vitro; cited from earlier work
[7] = post 7 days dose (800 mg, tid), 0 hour, n = 4, mean ± S.D.

CC(C)Cc1ccc(C(C)C(=O)O)cc1 (racemic) [RS-ibuprofen]
inhibition at 20 µM (PKC): 59%
human blood APPs (105 kDa) (APPs (105 kDa); post 1st dose (800 mg), 8 hours, ND = Not detectable): 2.47
human blood APPs (105 kDa) (APPs (105 kDa); post 1st dose (800 mg), 12 hours, ND = Not detectable): 2.125
human blood APPs (105 kDa) (APPs (105 kDa); post 1st dose (800 mg), 24 hours, ND = Not detectable): 2.25
human blood APPs (105 kDa) (APPs (105 kDa); [7]): 2.46
human blood APPs (105 kDa) (APPs (105 kDa); post 7 days dose (800 mg, tid), 7 days, ND = Not detectable): 3.21
Density of APP Bands, Membrane (APP): 4.65 ± 1.17

O=C(O)CCCc1ccc(N(CCCl)CCCl)cc1 [Chlorambucil, 4-[bis(2-chlorethyl)amino]benzenebutanoic acid]
absorption (in words) [1]: rapidly and completely absorbed

CC(C)Cc1ccc([C@@H](C)C(=O)O)cc1 [R-ibuprofen]
reduction of PMA induced cytosol to membrane PKCα translocation (PKCα): reduced
Density of APPs band [2]: 8.34 ± 0.88
APPs secretion in rat CSF (in words) (APPs [3]): significantly greater than that of the racimate and S-enantiomer
Density of APP Bands, CSF (APPs [3]): 19.48 ± 8.31
activity in the secretion of APPs versus racemic and S-ibuprofen (APPs [3]; summary statement): significantly more active than the currently employed racemic ibuprofen and S-ibuprofen
content of cytosolic APPs of rat brain (in words) (APPs [4]): more potent than racemic or S-ibuprofen
Density of APP Bands, Cytosol (APPs [4]): 11.51 ± 5.89
Density of APP Bands, Membrane (APP): 4.85
rat brain PKC βII content (in words) (PKC βII): dramatically
Density of PKC βII Bands (PKC βII): 9.69 ± 2.19
rat brain PKC α content (in words) (PKC α [5]): dramatically
Density of PKC α Bands (PKC α [5]): 18.41 ± 3.46
effect on PKC θ content (PKC θ): did not show a dramatic effect
effect on PKC ε content (PKC ε): did not show a dramatic effect
effect on PKC γ content (PKC γ): did not show a dramatic effect
effect on PKC .xi. content (PKC .xi.): did not show a dramatic effect
translocation of PKC α from human platelet cytosol to membrane fractions (PKC α [6]): complete translocation
blocking of PKC dependent neutrophil respiratory burst (neutrophil): blocking the PKC dependent neutrophil respiratory burst

CC(C)Cc1ccc([C@H](C)C(=O)O)cc1 [S-ibuprofen]
reduction of PMA induced cytosol to membrane PKCα translocation (PKCα): reduced
inhibition at 20 µM (PKC): 62%
human blood APPs (105 kDa) (APPs (105 kDa); 1st dose (800 mg), 0 hour (before dose), n = 4, mean ± S.D.): 1.76
duration of increased APPs (105 kDa) secretion (APPs (105 kDa); after 7 days dosing, 800 mg t.i.d. oral): 1 days
human blood APPs (105 kDa) (APPs (105 kDa); post 1st dose (800 mg), 1 hour, n = 4, mean ± S.D.): 2.53
human blood APPs (105 kDa) (APPs (105 kDa); post 1st dose (800 mg), 3 hours, n = 4, mean ± S.D.): 2.29
human blood APPs (105 kDa) (APPs (105 kDa); [7]): 0.96
human blood APPs (105 kDa) (APPs (105 kDa); post 7 days dose (800 mg, tid), 1 hour, n = 4, mean ± S.D.): 2.61
human blood APPs (105 kDa) (APPs (105 kDa); post 7 days dose (800 mg, tid), 1 day, n = 4, mean ± S.D.): 2.98
duration of increased APPs (105 kDa) secretion (APPs (105 kDa); single oral 800 mg dose): 0.12 days
Density of APPs band [2]: 6.83 ± 0.31
APPs secretion in rat CSF (in words) (APPs [3]): dramatically increased APPs secretion
Density of APP Bands, CSF (APPs [3]): 11.91 ± 6.42
Density of APP Bands, Cytosol (APPs [4]): 10.29 ± 5.75
Density of APP Bands, Membrane (APP): 3.99 ± 1.39
rat brain PKC βII content (in words) (PKC βII): not significantly
Density of PKC βII Bands (PKC βII): 5.99 ± 3.96
rat brain PKC α content (in words) (PKC α [5]): not significantly
Density of PKC α Bands (PKC α [5]): 16.58 ± 4.44
effect on PKC θ content (PKC θ): did not show a dramatic effect
effect on PKC ε content (PKC ε): did not show a dramatic effect
effect on PKC γ content (PKC γ): did not show a dramatic effect
effect on PKC .xi. content (PKC .xi.): did not show a dramatic effect
translocation of PKC α from human platelet cytosol to membrane fractions (PKC α [6]): did not
blocking of PKC dependent neutrophil respiratory burst (neutrophil): blocking the PKC dependent neutrophil respiratory burst
